Measured values from patent EP4840874A1, “NOVEL PEPTIDE HAVING ACTIVITIES OF INHIBITING MUSCLE LOSS AND PROMOTING MUSCLE GROWTH, AND USES THEREOF” (dated 2026).

Key:
[1] = system: C2C12 myoblasts; test: Myoblast proliferation (EZ-cytox cell viability test)
Experimental: To analyze the effect of the peptide prepared in Preparation Example 1 on myoblast proliferation, cell viability/cytotoxicity tests were performed.
C2C12 cells (mouse myoblast line) were cultured in DMEM medium containing 1% P/S and 10% FBS. When the cell confluency reached approximately 70 to 80%, cells were seeded into 96-well culture plates at a density of 5 x 10^3 cells/well by 200 µl. After 1 day, the medium was replaced with serum-free DMEM medium (1% P/S), and after 4 hours, it was replaced with DMEM containing 0.2% FBS while adding the peptide of SEQ ID NO: 1 at concentrations of 5 µM, 50 µM, or 100 µM. After 48 and 72 hours, the reaction was carried out using EZ-cytox (DoGenBio Co., Ltd, Seoul, Korea) until the absorbance of Non reached 1.0, and the absorbance at 450 nm was measured using a Spectrophotometer (SPECTRAMAX M2e).

[2] = system: C2C12 myoblasts; test: Myogenesis-related protein expression (Western blot); conditions: 1 hour
Experimental: To determine the effect of the peptide prepared in Preparation Example 1 on myogenesis, the expression levels of myogenesis-related protein markers in myoblasts were evaluated through Western blot analysis.
C2C12 cells (mouse myoblast line) were cultured in DMEM medium containing 1% P/S and 10% FBS. When cell confluency reached approximately 70 to 80%, cells were seeded into 6-well culture plates at a density of 5 x 10^5 cells/well by 2 ml. After 1 day, the medium was replaced with serum-free DMEM medium (1% P/S), and after 4 hours, the peptide of SEQ ID NO: 1 was added at a concentration of 5 µM or 50 µM. After 1 hour, lysis buffer was added to lyse the cells, which was then centrifuged at 4°C and 12,000 rpm for 30 minutes to obtain the protein, which was quantified using a BCA kit. SDS-PAGE was performed on the protein, and it was electrotransferred onto a membrane. After blocking the protein-electrophoresed membrane with 5% skim milk, anti-pPI3K primary antibody (Cell signaling Technology, USA) and anti-p70S6K primary antibody (Cell signaling Technology, USA) were reacted with anti-β-actin primary antibody (Santa Cruz, USA) as a loading control overnight at 4°C. The membrane was washed with PBS-T, and Peroxidase-conjugated AffiniPure Goat Anti-Rabbit IgG (H+L) secondary antibody (Jackson immunoResearch, USA) and Peroxidase-conjugated AffiniPure Goat Anti-Mouse IgG (H+L) secondary antibody (Jackson immunoResearch, USA) were reacted at room temperature for 1 hour. After washing the membrane again with PBS-T, visualization was performed using Gel Doc (Bio-Rad, Hercules, CA, USA) with Western detection reagent (Elpis Biotech, Daejeon, Korea).

[3] = system: C2C12 myoblasts; test: Differentiation-related protein expression in dexamethasone atrophy-induced myoblasts (Western blot); conditions: 5 or 50 µM pretreatment 30 minutes, then dexamethasone 24 hours
Experimental: Western blot analysis was used to evaluate whether the peptide prepared in Preparation Example 1 could restore the expression levels of differentiation-related proteins that were reduced in myoblasts with induced muscle atrophy.
C2C12 cells (mouse myoblast line) were cultured in DMEM medium containing 1% P/S and 2% BCS. When cell confluency reached approximately 70 to 80%, cells were seeded into 6-well culture plates at a density of 5 x 10^5 cells/well by 2 ml. Subsequently, when cell confluency reached 100%, the medium was replaced with differentiation medium (1% P/S, 2% horse serum) to induce differentiation. Subsequently, the differentiation medium was replaced every two days, and on the fourth day of differentiation induction, the cells were pretreated with the peptide of SEQ ID NO: 1 at a concentration of 5 µM or 50 µM for 30 minutes. Next, the cells were treated with soluble dexamethasone (Sigma, USA) and cultured for 24 hours to induce an atrophy environment. After culture, lysis buffer was added to lyse the cells, which was then centrifuged at 4°C and 12,000 rpm for 30 minutes to obtain the protein, which were then quantified using a BCA kit. SDS-PAGE was performed on the protein, and the protein was electrotransferred onto the membrane. […]

[4] = system: HepG2 hepatocytes; test: Fat synthesis-related protein expression in oleic acid-treated hepatocytes (Western blot); conditions: 500 µM oleic acid, 5 or 50 µM peptide, 48 hours
Experimental: To determine the effect of the peptide prepared in Preparation Example 1 on the expression of proteins related to fat synthesis, the expression levels of fat synthesis-related protein markers in hepatocytes were evaluated through Western blot analysis.
HepG2 cells (human hepatocyte line) were cultured in DMEM medium containing 1% P/S and 10% FBS. When cell confluency reached approximately 70 to 80%, cells were seeded into 12-well culture plates at a density of 1 x 10^5 cells/well by 1 ml. Subsequently, when cell confluency in the 12-well culture plates reached approximately 70 to 80%, the medium was replaced with serum-free DMEM medium. After 4 hours, the medium was replaced with serum-free DMEM (1% BSA) supplemented with 500 µM oleic acid (Sigma, USA), and the peptide of SEQ ID NO: 1 was treated at a concentration of 5 µM or 50 µM and incubated for 48 hours. After incubation, lysis buffer was added to lyse the cell, which was then centrifuged at 4°C and 12,000 rpm for 30 minutes to obtain the protein, which was quantified using a BCA kit. SDS-PAGE was performed on the protein, and the protein was electrotransferred onto a membrane. After blocking the protein-electrophoresed membrane with 5% skim milk, the anti-SREBP1 primary antibody (Abcam, UK) was reacted with the anti-β-actin primary antibody (Santa Cruz, USA) as a loading control overnight at 4°C. […]

CC(C)[C@H](NC(=O)[C@@H](NC(=O)[C@@H](N)CC(=O)O)[C@@H](C)O)C(=O)N[C@@H](CCC(=O)O)C(=O)N[C@@H](CC(N)=O)C(=O)O
cell proliferation level in C2C12 myoblasts ([1]; 5, 50 or 100 µM, 48 and 72 hours): increased in a concentration-dependent manner | proliferation level of C2C12 myoblasts increased ([1]; 48 hours, peptide concentration 50 µM): approximately 17% | proliferation level of C2C12 myoblasts increased ([1]; 72 hours, peptide concentration 100 µM): approximately 42% | expression of p70S6K ([2]; 5 or 50 µM): increased in a concentration-dependent manner | expression of pPI3K ([2]; 5 or 50 µM): increased in a concentration-dependent manner | p70S6K protein expression increase ([2]; peptide concentration 50 µM): approximately 135% | pPI3K protein expression increase ([2]; peptide concentration 50 µM): approximately 39% | protein expression level of MyoD reduced by dexamethasone [3]: restored in a peptide concentration-dependent manner | protein expression level of α-actinin reduced by dexamethasone [3]: restored in a peptide concentration-dependent manner | protein expression level of SREBP1 increased by oleic acid [4]: reduced
